Results on two compounds are retold here after ChEMBL document CHEMBL5316351, “Development of a Covalent Inhibitor of c-Jun N-Terminal Protein Kinase (JNK) 2/3 with Selectivity over JNK1” (J Med Chem, 2023).

By UniProt entry, the sequences of proteins in these tests, tags left out. Where a name states a change or a piece, a line headed by the entry shows the natural chain unless it says otherwise.
UniProt P45983: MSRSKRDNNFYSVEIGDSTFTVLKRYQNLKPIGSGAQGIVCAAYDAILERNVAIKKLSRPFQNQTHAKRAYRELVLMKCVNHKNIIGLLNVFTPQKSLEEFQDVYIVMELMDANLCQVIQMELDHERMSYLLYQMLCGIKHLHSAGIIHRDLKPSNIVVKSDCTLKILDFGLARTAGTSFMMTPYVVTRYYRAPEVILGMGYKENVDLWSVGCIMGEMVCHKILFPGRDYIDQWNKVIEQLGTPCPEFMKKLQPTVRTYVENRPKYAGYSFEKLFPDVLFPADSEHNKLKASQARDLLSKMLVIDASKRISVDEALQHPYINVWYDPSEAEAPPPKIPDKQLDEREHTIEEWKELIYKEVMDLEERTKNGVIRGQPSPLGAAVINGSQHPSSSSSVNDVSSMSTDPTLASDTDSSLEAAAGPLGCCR
UniProt P45984: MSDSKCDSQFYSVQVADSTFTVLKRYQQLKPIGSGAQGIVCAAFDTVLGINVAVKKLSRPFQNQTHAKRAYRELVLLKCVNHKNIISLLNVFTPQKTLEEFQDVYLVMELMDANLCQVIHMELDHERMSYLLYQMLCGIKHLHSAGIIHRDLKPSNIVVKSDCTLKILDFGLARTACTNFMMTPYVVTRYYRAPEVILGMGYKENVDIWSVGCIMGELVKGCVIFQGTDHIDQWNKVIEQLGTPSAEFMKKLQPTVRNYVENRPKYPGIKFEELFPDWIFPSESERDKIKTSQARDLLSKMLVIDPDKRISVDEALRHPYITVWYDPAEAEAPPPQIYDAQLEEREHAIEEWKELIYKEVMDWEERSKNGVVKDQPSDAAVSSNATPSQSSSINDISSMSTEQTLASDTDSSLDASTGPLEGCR

Usually IC50 stands for the concentration that gives 50% inhibition.

Experiment [1] has as its target Mitogen-activated protein kinase 8 (Homo sapiens, UniProt P45983). Kind of experiment: Inhibition of Nano-Luc fused JNK1 (unknown origin) expressed in HEK293T cells pretreated for 3 hrs followed by K5-tarcer addition and measured after 1 hr by NanoBRET assay. It is filed as cell-based. In general terms: In BRET a luciferase serves as donor, and the signal depends on an acceptor being close.

Experiment [2] deals with Mitogen-activated protein kinase 9 (Homo sapiens, UniProt P45984). Kind of experiment: Inhibition of Nano-Luc fused JNK2 (unknown origin) expressed in HEK293T cells pretreated for 3 hrs followed by K5-tarcer addition and measured after 1 hr by NanoBRET assay. In kind it is cell-based.

As to `Cc1cc(NC(=O)c2cccc(NC(=O)/C=C/CN(C)C)c2)ccc1Nc1nccc(-c2cccnc2)n1`, in experiment [1], the IC50 is 26 nM. Consider `C[C@H]1CN(C(=O)c2ccc(NC(=O)/C=C/CN(C)C)cc2)C[C@H]1Nc1nccc(-c2c(-c3ccccc3)nn3ccccc23)n1`, for which the IC50 in experiment [2] worked out at 132 nM.
